{
  "source": "patent US12378211B2",
  "about": "“Carbonic anhydrase inhibitors and antibiotics against multidrug resistant bacteria” (Purdue Research Foundation, priority 2018, dated 2025)",
  "key": {"[1]": {"tested_on": "fibroblast-like monkey kidney cell line (VERO cell)", "experiment": "In vitro cytotoxicity, MTS assay, VERO cells", "type": "cell-based", "conditions": "at concentration up to 128 μg/mL; tested at 64 and 128 μg/mL; two hours"}, "[2]": {"tested_on": "Wild-type E. fecalis (NR 31975)", "experiment": "MIC against wild-type strain (mutant study)", "type": "cell-based, Enterococcus fecalis", "conditions": "Enterococcus"}},
  "data": [
    {"smiles": "CCCC(=O)Nc1nnc(S(N)(=O)=O)s1", "note": "[CAI0013, N-(5-Sulfamoyl-1,3,4-thiadiazol-2-yl) butyramide]", "values": [
      {"measurement": "toxicity to VERO cells (percent viable cells relative to DMSO)", "setting": "[1]", "value": "non-toxic"},
      {"measurement": "MIC", "setting": "[2]", "value": 2, "unit": "mg/L"}
    ]}
  ]
}
